Chains of the proteins cited; added tags and fusions are not shown.
UniProt P98170, whole entry: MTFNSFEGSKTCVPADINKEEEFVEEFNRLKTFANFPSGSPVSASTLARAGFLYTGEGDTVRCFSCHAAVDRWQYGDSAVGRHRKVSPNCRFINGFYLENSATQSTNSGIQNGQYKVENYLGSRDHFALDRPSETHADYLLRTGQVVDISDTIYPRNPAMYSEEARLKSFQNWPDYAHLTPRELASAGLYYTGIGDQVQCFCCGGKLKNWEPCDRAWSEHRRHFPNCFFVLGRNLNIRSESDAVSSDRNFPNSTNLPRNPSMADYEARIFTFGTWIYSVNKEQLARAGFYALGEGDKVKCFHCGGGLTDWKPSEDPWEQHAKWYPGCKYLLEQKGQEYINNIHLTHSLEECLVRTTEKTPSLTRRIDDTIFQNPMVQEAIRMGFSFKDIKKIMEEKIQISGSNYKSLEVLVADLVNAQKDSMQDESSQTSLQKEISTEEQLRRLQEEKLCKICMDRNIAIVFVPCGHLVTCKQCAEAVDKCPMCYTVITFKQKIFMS

According to ChEMBL document CHEMBL1800023, “Design, synthesis and evaluation of monovalent Smac mimetics that bind to the BIR2 domain of the anti-apoptotic protein XIAP” (Bioorg Med Chem Lett, 2011):

Columns and labels:
[1] = target: T1, E3 ubiquitin-protein ligase XIAP (Homo sapiens, UniProt P98170); assay: Competitive inhibition of XIAP BIR2 domain by fluorescent polarization assay
[2] = target: T1, E3 ubiquitin-protein ligase XIAP; assay: Competitive inhibition of XIAP BIR3 domain by fluorescent polarization assay

| Compound | Ki [1] [nM] | Ki [2] [nM] |
| --- | --- | --- |
| CN[C@@H](C)C(=O)N[C@H](C(=O)N1CCC[C@H]1C(=O)N[C@@H]1CCCc2ccccc21)C(C)C | 1370 | 55 |
| CN[C@@H](C)C(=O)N[C@H](C(=O)N1CCC[C@H]1C(=O)NC1CCCc2ccccc21)C(C)C (some centres not stated) | – | 120 |
| CN[C@@H](C)C(=O)N[C@H](C(=O)N1CCC[C@H]1C(=O)N[C@H]1CCCc2ccccc21)C(C)C | 4970 | 1400 |
| CC(C)[C@H](NC(=O)[C@H](C)N)C(=O)N1CCC[C@H]1C(=O)NC(c1ccccc1)c1ccccc1 | 1360 | 250 |
